# Apparent affinities of Ab-14 variants for a coronavirus HR2 peptide

Source: Engelhart et al. 2022 (doi:10.1038/s41597-022-01779-4), MIT Lincoln Laboratory and A-Alpha Bio; data file from the FLAb repository.

Antigen: PDVDLGDISGINAS, a 14-residue peptide of the SARS-CoV-2 spike HR2 region.

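The parent was found by panning a naive human phage display library on the peptide. Variants in AAYL49 differ from the parent at up to three CDR positions; double and triple changes were sampled at random. The scFvs were displayed on barcoded MATa yeast, the peptide on MATalpha yeast. Binding brings cells together so that they mate, and sequencing counts the barcode pairs among the diploids. The ratio of observed to expected reads was calibrated, replicate by replicate, on BCL2-family standards whose Kd was known from biolayer interferometry. The assay was run in three technical replicates.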

Parent scFv Ab-14: VH joined to VL by a 15-residue (Gly4Ser)3 linker. Changes lie in the heavy chain CDRs alone.
VH: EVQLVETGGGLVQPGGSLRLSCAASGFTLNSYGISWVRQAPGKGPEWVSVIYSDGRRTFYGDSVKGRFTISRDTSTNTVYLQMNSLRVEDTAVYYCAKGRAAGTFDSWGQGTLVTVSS
VL: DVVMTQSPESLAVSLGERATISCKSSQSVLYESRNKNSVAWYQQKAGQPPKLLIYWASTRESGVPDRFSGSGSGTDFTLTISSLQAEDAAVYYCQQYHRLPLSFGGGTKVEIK

Positions count from residue 1 of the parent VH; T28E puts E in place of T. Values are apparent Kd, the geometric mean of the replicates that gave a signal; lower means stronger binding. An entry "nd" has no value in the source: the pair was not observed among the diploids in any replicate. This suggests poor binding but is not conclusive. For reference, the parent read 4.4 nM as the reference entry and 13 µM (one replicate of three) as a member of this library.

changes,apparent Kd,replicates with signal,control signals
T28E/N30I/Y32D,2.3 µM,1/3,0/9
S53Q/D54M/A101S,nd,0/3,0/9
I34Y/G99V/A102F,4.7 µM,1/3,3/9
G26H/D54W/R56T,nd,0/3,0/9
V50C/F59W/A101P,4.8 µM,1/3,0/9
F27D/S31E/S35Q,330 µM,1/3,4/9
Y32T/G33L/I34S,1.1 µM,1/3,0/9
S31N/Y52F/G55L,910 nM,1/3,0/9
S63R/D106H,71 nM,3/3,1/9
G33C/A101R/S107L,nd,0/3,3/9
S31E/R57Q/R100H,56 nM,3/3,1/9
T28M/Y32P/F105N,980 nM,1/3,0/9
L29R/N30D/T104Q,nd,0/3,0/9
T28F/D54W/A102N,3.5 µM,2/3,1/9
G26A/S35P/G103F,43 µM,2/3,1/9
Y52K/S53R/T58Y,nd,0/3,1/9
I51M/R56T/G61V,37 nM,3/3,3/9
I34S/R57Y/A102Q,nd,0/3,0/9
I34T/V50M/Y60G,nd,0/3,1/9
Y52P/T58N/G61A,48 µM,1/3,2/9
F27G/S35R,nd,0/3,2/9
F59K/G99N/R100E,12 µM,1/3,1/9
G33F/V50K/Y52D,nd,0/3,0/9
G33L/T58K/S107I,120 µM,2/3,3/9
I51A/S53Q/G55K,1.3 mM,2/3,3/9
Y52W/G55T/Y60N,160 µM,1/3,3/9
G99M/S107L,190 nM,3/3,0/9
G26T/L29A/Y32F,nd,0/3,0/9
V50Q/R56W/T104Y,nd,0/3,0/9
F27L/G33K/V64M,nd,0/3,2/9
V64Y/F105C,15 µM,3/3,7/9
G33W/G99K/A102P,nd,0/3,0/9
I51W/T58Q/G61P,1.6 µM,1/3,2/9
S53V/T104F/F105P,nd,0/3,0/9
S53P/R57T/G99E,22 µM,3/3,3/9
T28P/V64R/D106P,51 µM,1/3,1/9
G33Q/R100I/T104M,nd,0/3,3/9
R57E/K65S,16 µM,2/3,2/9
G26D/R57E/D106G,nd,0/3,1/9
L29R/G99Y,nd,0/3,1/9
S31V/R56N/A102R,nd,0/3,2/9
F27I/S31R/I34A,6.8 µM,1/3,3/9
Y32M/S53C/A102M,580 nM,1/3,1/9
T28R/S35C/D62P,16 µM,1/3,4/9
N30C/I51L/R56E,3.9 µM,2/3,3/9
F27P/S35N/I51K,nd,0/3,0/9
I51F/Y60C/G61V,nd,0/3,1/9
R56Q/F59L/D106T,120 µM,1/3,1/9
S35N/R56A/G103N,78 nM,1/3,0/9
F27N/I34K/I51D,nd,0/3,2/9
G33A/Y52H/S63V,nd,0/3,0/9
D54S/K65D,240 nM,3/3,0/9
L29W/I51G,1.1 µM,1/3,0/9
L29S/G103D/T104N,nd,0/3,0/9
F27G/F59W/D106Q,13 µM,1/3,2/9
V50H/T58I/S63W,57 µM,1/3,2/9
L29E/R57F/Y60R,32 µM,1/3,4/9
Y32L/F59N,4.7 µM,2/3,3/9
N30A/G33M/V50M,nd,0/3,3/9
V50I/Y60T/V64I,1.2 µM,1/3,1/9
G33Q/S35M/G99I,nd,0/3,0/9
G33S/R56C/S107V,nd,0/3,0/9
L29Y/D62Y/G99E,610 nM,1/3,0/9
S31R/F59C/T104N,420 µM,2/3,4/9
N30L/G55I/A101K,5.8 µM,2/3,6/9

Excerpt, the first 6 entries:

changes,apparent Kd,replicates with signal,control signals
T28E/N30I/Y32D,2.3 µM,1/3,0/9
S53Q/D54M/A101S,nd,0/3,0/9
I34Y/G99V/A102F,4.7 µM,1/3,3/9
G26H/D54W/R56T,nd,0/3,0/9
V50C/F59W/A101P,4.8 µM,1/3,0/9
F27D/S31E/S35Q,330 µM,1/3,4/9

Nonspecific signal, from three strains lacking the peptide, appeared in 15% of pairings of library AAYL49, centred on 11 µM (5% of these signals below 680 nM); values are not corrected for it. The control count says in how many pairings with the empty strains this scFv gave a signal.